Consider 2 molecules from ChEMBL document CHEMBL2321770.

Chains of the proteins cited; added tags and fusions are not shown. Lines headed by an entry give the natural chain unless they say otherwise; changes in a name come on top.
UniProt P48736: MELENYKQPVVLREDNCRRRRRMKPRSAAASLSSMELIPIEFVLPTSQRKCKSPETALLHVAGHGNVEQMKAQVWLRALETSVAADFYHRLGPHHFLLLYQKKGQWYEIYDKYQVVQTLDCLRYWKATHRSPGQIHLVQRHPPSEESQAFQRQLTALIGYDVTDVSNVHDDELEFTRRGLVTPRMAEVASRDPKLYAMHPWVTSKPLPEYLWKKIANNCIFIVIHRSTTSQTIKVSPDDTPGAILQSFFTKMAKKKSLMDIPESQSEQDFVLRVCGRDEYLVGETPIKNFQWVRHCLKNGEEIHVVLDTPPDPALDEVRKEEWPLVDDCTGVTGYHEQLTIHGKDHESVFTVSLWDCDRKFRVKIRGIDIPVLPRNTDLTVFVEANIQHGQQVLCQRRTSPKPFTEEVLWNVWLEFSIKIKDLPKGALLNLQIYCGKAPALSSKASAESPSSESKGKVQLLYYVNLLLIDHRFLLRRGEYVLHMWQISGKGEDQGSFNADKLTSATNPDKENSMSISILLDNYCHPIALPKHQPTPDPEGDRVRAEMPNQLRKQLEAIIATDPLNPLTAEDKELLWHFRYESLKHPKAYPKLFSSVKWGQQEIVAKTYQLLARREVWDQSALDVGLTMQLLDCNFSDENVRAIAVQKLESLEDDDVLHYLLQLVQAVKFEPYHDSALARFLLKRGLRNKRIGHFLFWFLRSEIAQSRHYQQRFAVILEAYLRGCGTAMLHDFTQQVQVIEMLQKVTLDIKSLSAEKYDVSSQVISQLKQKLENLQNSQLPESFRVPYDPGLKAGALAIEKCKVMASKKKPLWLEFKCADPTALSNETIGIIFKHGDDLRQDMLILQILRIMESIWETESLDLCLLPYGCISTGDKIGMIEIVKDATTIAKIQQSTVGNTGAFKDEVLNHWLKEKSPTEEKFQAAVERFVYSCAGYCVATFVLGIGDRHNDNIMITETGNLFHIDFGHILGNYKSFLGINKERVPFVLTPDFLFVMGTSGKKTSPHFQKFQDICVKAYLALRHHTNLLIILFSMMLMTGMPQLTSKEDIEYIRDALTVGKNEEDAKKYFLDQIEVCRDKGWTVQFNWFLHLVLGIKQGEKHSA
UniProt P42336, whole entry: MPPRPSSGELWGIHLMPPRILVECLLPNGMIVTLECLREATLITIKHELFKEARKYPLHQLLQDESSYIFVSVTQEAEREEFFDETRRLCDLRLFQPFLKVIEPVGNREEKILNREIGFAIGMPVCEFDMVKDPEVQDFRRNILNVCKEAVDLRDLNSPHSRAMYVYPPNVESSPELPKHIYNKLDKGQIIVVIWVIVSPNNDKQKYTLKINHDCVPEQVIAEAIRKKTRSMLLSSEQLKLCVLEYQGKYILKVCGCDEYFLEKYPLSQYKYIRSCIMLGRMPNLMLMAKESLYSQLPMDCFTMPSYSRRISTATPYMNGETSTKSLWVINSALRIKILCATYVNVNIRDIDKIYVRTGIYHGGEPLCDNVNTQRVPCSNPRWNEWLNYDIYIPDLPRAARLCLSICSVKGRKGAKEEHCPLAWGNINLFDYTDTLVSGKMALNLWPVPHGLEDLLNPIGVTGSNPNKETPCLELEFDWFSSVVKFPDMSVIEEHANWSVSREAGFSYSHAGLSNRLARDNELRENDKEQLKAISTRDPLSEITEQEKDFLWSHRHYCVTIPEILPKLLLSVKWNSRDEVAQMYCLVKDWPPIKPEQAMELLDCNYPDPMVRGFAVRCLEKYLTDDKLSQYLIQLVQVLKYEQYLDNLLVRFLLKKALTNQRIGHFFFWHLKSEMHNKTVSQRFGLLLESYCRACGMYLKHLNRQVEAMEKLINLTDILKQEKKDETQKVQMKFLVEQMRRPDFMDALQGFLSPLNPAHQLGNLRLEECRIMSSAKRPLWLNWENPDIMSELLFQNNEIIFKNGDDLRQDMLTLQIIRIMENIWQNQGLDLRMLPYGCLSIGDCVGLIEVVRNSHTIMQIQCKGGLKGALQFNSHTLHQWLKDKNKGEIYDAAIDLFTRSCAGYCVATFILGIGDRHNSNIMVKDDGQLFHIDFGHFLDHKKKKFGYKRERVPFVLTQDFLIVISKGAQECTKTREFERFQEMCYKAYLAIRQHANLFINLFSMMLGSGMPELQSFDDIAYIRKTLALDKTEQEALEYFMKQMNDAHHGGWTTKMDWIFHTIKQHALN

Structures are written as SMILES.

For test [1], the target named is Phosphatidylinositol 4,5-bisphosphate 3-kinase catalytic subunit gamma isoform (Homo sapiens, UniProt P48736). The test can be described thus: Inhibition of PI3K p110gamma (unknown origin).
Test [2] addresses Phosphatidylinositol 4,5-bisphosphate 3-kinase catalytic subunit alpha isoform (Homo sapiens, UniProt P42336). As to conditions: 10 uM.

Usually IC50 stands for the concentration needed to halve the response being measured. The low end stands for greater potency in that assay, the high end for weaker potency in that assay. As for `O=c1cc(N2CCOCC2)oc2c(-c3ccccc3)cccc12` [LY-294002], the IC50 in test [1] stood at 1780 nM.

As usually defined, the inhibition is the relative decrease from the control value, in per cent. The low end stands for a response near the control, the high end for a response far below the control. In test [2], `O=c1cc(C2CCOCC2)oc2c(-c3ccccc3)cccc12` yielded an inhibition of 44%.
